The values that follow come from patent US20080213836A1.

For assay [1], the target named is Medaka EP-1 serine protease domain (wild-type) (Oryzias latipes (Japanese Medaka)). The assay can be described thus: cell-based or functional assay.
Assay [2] addresses Medaka EP-2 serine protease domain (Oryzias latipes (Japanese Medaka)). In words: cell-based or functional assay.

As for Aprotinin (from UniProt P00974 36-93), the Inhibition (%) of GD4K-βNA hydrolysis at 0.01 mg/ml in assay [1] was determined as 0%; in assay [2], 5%.
